Assay results taken from PMC11640758.

Biological target: nanodisc (supramolecular protein assembly of SRP-A and 1,2-dimyristoyl-sn-glycero-3-phosphocholine, DMPC) (human)
Assay: SPR

Kd: 1360 nM
Substance: amyloid beta (Aβ) 1–42 (from UniProt P05067 672-713) (peptide)
